Data taken from patent US12290596B2, “Compositions and methods for the treatment of opioid overdose” (priority 2021, dated 2025).

Details: nalmefene HCl 3 mg IN vs naloxone HCl 4 mg IN

C=C1CC[C@@]2(O)[C@H]3Cc4ccc(O)c5c4[C@@]2(CCN3CC2CC2)[C@H]1O5 [Nalmefene, 17-cyclopropylmethyl-4,5α-epoxy-6-methylenemorphinan-3,14-diol]
AUC0-inf of nalmefene compared to naloxone: 2.0 fold
Cmax of nalmefene compared to naloxone: 1.2 fold
